The results in this text go back to ChEMBL document CHEMBL1949590, “Discovery of a novel class of orally active trypanocidal N-myristoyltransferase inhibitors” (J Med Chem, 2012).

The structures appear in SMILES notation.

A short description of this data set: in vivo. Conditions: NMRI, mouse, iv, 3 mg/kg.

Broadly, the Vd is a proportionality between amount in the body and measured concentration, not a real space. Read a low Vd as confinement near the circulation.

In the case of `Cc1nn(C)c(C)c1NS(=O)(=O)c1c(Cl)cc(-c2ccnc(N3CCNCC3)c2)cc1Cl`, the Vd came to 0.4 L/kg.
